In patent US20240181056A1, “CHIMERIC ANTIGEN RECEPTOR (CAR)-T CELLS” (Imperial College Innovations Limited, priority 2021, published 2024):
Values joined by “and” are separate entries in the source; they are usually repeats but may differ in a detail not shown here. Identical values can stand only once.

Target: CD4 antigen (T-cell surface glycoprotein CD4 [Homo sapiens]) (human) (UniProt P01730)
Test: cell-based or functional assay

CART4 chimeric antigen receptor (anti-CD4 CAR; scFv of Hu5A8 fused to CD8 hinge/transmembrane domain, CD28 endodomain, 4-1BB endodomain and CD3ζ chain)
ablation of CD4+ malignant cells in ATLL patient PBMCs, 4-hour co-culture: 80% | lysis of CD4+ cells in autologous PBMCs, E:T ratio 3:1, 4-hour co-culture: 94% | reduction of malignant T cells in primary CTCL patient samples, 4-hour co-culture: 80% and 60%
